No end group written: not given here. Dmd exon‑23 PMO = 25-mer Dmd exon-23 PMO conjugated to the peptide C-terminus
Test system: Dmd pre-mRNA exon 23 in H2K mdx myotubes
Assay: Mouse exon skipping mdx cell assay (DMD exon-23 skipping, nested RT-PCR)
Conditions: P-PMO (25-mer Dmd PMO) 1 and 5 μM, 4 h serum-free Opti-MEM then 20 h, at least three independent experiments

Amino acid sequences for entries named in this document (tags omitted). A change or cut given only in a name is not applied to a line headed by its entry.
UniProt P02649: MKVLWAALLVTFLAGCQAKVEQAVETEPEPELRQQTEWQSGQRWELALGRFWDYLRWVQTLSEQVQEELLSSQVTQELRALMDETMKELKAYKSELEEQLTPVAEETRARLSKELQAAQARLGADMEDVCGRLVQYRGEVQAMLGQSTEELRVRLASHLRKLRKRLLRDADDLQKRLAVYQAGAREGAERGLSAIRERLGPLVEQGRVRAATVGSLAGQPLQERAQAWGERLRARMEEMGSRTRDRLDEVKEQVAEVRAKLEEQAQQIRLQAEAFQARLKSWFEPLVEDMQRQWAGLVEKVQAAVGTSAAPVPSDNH

ApoE (141–150)-PMO: ApoE (141–150) peptide conjugated by its C-terminus to the 25-mer Dmd exon-23 PMO (LRKLRKRLLR-{Dmd exon‑23 PMO}; also: C-terminal conjugate to 25-mer Dmd exon-23 PMO; UniProt P02649 159-168, looked up, fragment)
exon-23 skipping activity compared with naked PMO: highest exon-skipping activity in mdx cells that was statistically greater than that for PMO alone

— paper PMC5467147, “Identification of a Peptide for Systemic Brain Delivery of a Morpholino Oligonucleotide in Mouse Models of Spinal Muscular Atrophy” (Nucleic Acid Therapeutics, 2017)
